# Measured values taken from patent publication US20040014721A1, “Method for using tethered bis(polyhydroxyphenyls) and O-alkyl derivatives thereof in treating inflammatory conditions of the central nervous system” (Oklahoma Medical Research Foundation, priority 2002, published 2004).
# Tested on: EOC-20 cells
# Settings: Table III; MTT viability; by extrapolation through sublethal concentrations
smiles,measurement,value
CN(C)[C@@H]1C(O)=C(C(N)=O)C(=O)[C@@]2(O)C(O)=C3C(=O)c4c(O)cccc4[C@@](C)(O)[C@H]3[C@H](O)[C@@H]12 [Oxyletracycline],LD50,nontoxic
